Assay results from ChEMBL document CHEMBL1138496, “Synthesis and evaluation of a novel indoledione class of long chain fatty acid elongase 6 (ELOVL6) inhibitors” (J Med Chem, 2009).

What was measured:
[1] = species: Homo sapiens; assay: Selectivity ratio, IC50 for human ELOVL3 to IC50 for human ELOVL6
[2] = species: Mus musculus; assay: Selectivity ratio, IC50 for mouse ELOVL3 to IC50 for mouse ELOVL6

Cc1[nH]n(-c2ccc(OC(F)(F)F)cc2)c(=O)c1C1(C(F)(F)F)C(=O)N(c2ccccc2)C2=C1C(=O)CC(C)(C)C2 (configuration not stated)
Ratio IC50 [1]: 74
Ratio IC50 [2]: 6
